Measured values as given in patent US20180079912A1, “ANTIFOULING MATERIALS” (priority 2013, published 2018).

Test: Coating thickness by ellipsometry (Cauchy model)
Type: physicochemical
Details: Cauchy film model
Protocol: The thickness of the peptide-based coating was measured using α-SE spectroscopic ellipsometer (J. A. Woollam, Lincoln, Nebr., USA). […] The thickness of the layers and refractive indices were fitted according to the Cauchy model. The coefficients of the Cauchy equation were initially fixed for organic layers (An=1.45, Bn=0.01 and Cn=0), and an angle offset was permitted. Then, the parameters were allowed to be fitted to determine more accurate values.

Substance	thickness of the coating by ellipsometry
NH2-L-DOPA-L-(4F)Phe(2)-D-(4F)Phe(3)-COOMe [Peptide 2]	3.46±0.04 nm
NH2-L-DOPA-L(4F)-Phe(2)-L(4F)-Phe(3)-COOMe [Peptide 1]	3.41±0.05 nm
NH2-L-DOPA-D-(4F)Phe(2)-D-(4F)Phe(3)-COOMe [Peptide 4]	3.36±0.05 nm
NH2-L-DOPA-D-(4F)Phe(2)-L-(4F)Phe(3)-COOMe [Peptide 3]	3.48±0.03 nm
